Experiment: Skin PEA concentration after topical application (HPLC/MS)
Conditions: PEA 450 μg topical, n=5

In the case of `CCCCCCCCCCCCCCCC(=O)NCCO` [PEA, palmitoylethanolamide], the “PEA skin concentration after topical application” value is reported as 250.2 ± 22.4 nmol/g.
